Measured values published in BindingDB's records for doi:10.1126/science.abf1611 (Sichuan University, 2021).
pIC50: −log10 of the molar value.

Target: Replicase polyprotein 1ab (Severe acute respiratory syndrome coronavirus 2, UniProt P0DTD1)
Assay: The enzymatic inhibition assay

Q: `O=C[C@H](C[C@@H]1CCNC1=O)NC(=O)[C@H]1[C@@H]2CCC[C@H]2CN1C(=O)COc1ccc(Cl)cc1` [MI-28] was tested. Which pIC50 did it give?
A: 8.04

Q: With `O=C[C@H](C[C@@H]1CCNC1=O)NC(=O)[C@H]1[C@@H]2CCC[C@H]2CN1C(=O)CCc1cccc(F)c1` [MI-21] as the molecule, how does the pIC50 read?
A: 8.12
